For test [1], the system named is TS-negative FSthy21 cells transfected with D49G mutant human TS cDNA. In kind it is cell-based, mouse. The conditions noted are these: BW1843U89; D49G/clone (1) vs wild-type clone (1).
Test [2] deals with TS-negative FSthy21 cells transfected with F225L mutant human TS cDNA. In kind it is cell-based, mouse. The note with it: BW1843U89; F225L/clone (3) vs wild-type clone (1).
For test [3], the system named is TS-negative FSthy21 cells transfected with F225W mutant human TS cDNA. In kind it is cell-based, mouse. The conditions noted are these: BW1843U89; F225W/clone (2) vs wild-type clone (1).
The test system of test [4] is TS-negative FSthy21 cells transfected with F225Y mutant human TS cDNA. In kind it is cell-based, mouse. The conditions noted are these: BW1843U89; F225Y/clone (1) vs wild-type clone (1).
The subject of test [5] is TS-negative FSthy21 cells transfected with L221S mutant human TS cDNA. In kind it is cell-based, mouse. The conditions noted are these: BW1843U89; L221S/clone (2) vs wild-type clone (1).
Test [6] relates to TS-negative FSthy21 cells transfected with L221A mutant human TS cDNA. In kind it is cell-based, mouse. The note with it: BW1843U89; L221A/clone (2) vs wild-type clone (1).
Test [7] relates to TS-negative FSthy21 cells transfected with L221I mutant human TS cDNA. In kind it is cell-based, mouse. The conditions noted are these: BW1843U89; L221I/clone (1) vs wild-type clone (1).
For test [8], the system named is TS-negative FSthy21 cells transfected with I108F mutant human TS cDNA. In kind it is cell-based, mouse. The note with it: BW1843U89; 1108F/clone (2) vs wild-type clone (1).
The subject of test [9] is TS-negative FSthy21 cells transfected with K47E mutant human TS cDNA. In kind it is cell-based, mouse. The conditions noted are these: BW1843U89; K47E/clone (2) vs wild-type clone (1).
Test [10] concerns TS-negative FSthy21 cells transfected with I108A mutant human TS cDNA. Nature of the test: Growth inhibition assay (alamar Blue), I108A transfectants. The conditions noted are these: BW1843U89. Background: Alamar Blue is a resazurin reagent that responds to reducing activity.
For test [11], the system named is TS-negative FSthy21 cells transfected with G52S mutant human TS cDNA. In kind it is cell-based, mouse. The note with it: BW1843U89; G52S/clone (3) vs wild-type clone (1).

The structures appear in SMILES notation.

Turning to `Cc1nc2ccc3ccc(CNc4ccc5c(c4)CN([C@@H](CCC(=O)O)C(=O)O)C5=O)cc3c2c(=O)[nH]1`, the “Ratio of IC50 values for mutant/wt cells” value in [1] is 5.3(1); in test [2], 2.8(1); in [3], 22(1); in test [4] it was 2.6(1); in test [5], 2.7(1); in test [6], 2.7(1). For the same compound, the “Ratio of IC50 values for mutant/wt cells” value in test [7] was 2.7(1); in test [8] it was 1.2(1); in test [9], 2.7(1); in [10] (1108A/clone (1) vs wild-type clone (2)) it was 6.2(2)^2; in test [10] (1108A/clone (2) vs wild-type clone (2)), 7.4(2); in test [10] (1108A/clone (3) vs wild-type clone (2)), 7.8(2). The “Ratio of IC50 values for mutant/wt cells” value in [11] is listed as 3.0(1).
